Assay results published in ChEMBL document CHEMBL1154364, “2-Benzimidazolyl-9-(chroman-4-yl)-purinone derivatives as JAK3 inhibitors” (Bioorg Med Chem Lett, 2009).

Molecular target: T1, Tyrosine-protein kinase JAK3 (Homo sapiens, UniProt P52333)
T1 sequence (P52333 whole entry): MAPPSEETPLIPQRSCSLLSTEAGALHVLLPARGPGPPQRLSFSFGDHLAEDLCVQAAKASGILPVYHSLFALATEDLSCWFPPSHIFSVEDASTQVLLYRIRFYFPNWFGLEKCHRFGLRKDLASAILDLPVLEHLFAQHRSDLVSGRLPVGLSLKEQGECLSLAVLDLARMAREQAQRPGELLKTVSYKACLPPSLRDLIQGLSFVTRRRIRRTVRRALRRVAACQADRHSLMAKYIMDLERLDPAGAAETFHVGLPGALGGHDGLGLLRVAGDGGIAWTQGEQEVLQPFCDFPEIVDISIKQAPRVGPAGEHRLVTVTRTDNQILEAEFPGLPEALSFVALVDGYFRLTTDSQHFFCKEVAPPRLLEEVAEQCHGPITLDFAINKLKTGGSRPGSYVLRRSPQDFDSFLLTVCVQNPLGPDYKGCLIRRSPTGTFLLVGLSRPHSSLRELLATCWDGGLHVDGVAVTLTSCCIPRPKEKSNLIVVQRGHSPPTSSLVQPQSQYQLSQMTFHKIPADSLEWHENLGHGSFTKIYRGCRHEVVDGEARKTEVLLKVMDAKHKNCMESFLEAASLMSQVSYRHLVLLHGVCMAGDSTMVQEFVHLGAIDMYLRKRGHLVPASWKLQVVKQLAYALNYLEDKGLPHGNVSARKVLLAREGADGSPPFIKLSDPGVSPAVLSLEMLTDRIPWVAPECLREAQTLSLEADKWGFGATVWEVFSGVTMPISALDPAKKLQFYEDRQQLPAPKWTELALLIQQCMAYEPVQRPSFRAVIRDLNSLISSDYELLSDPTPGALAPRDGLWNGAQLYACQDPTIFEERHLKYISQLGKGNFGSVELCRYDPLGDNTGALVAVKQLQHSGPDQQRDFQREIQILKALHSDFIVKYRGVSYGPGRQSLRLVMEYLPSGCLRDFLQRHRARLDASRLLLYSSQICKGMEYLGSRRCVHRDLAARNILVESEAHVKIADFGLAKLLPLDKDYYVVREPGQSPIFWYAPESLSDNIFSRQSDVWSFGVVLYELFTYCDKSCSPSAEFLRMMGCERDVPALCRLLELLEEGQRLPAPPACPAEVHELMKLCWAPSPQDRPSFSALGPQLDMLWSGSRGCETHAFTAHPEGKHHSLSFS

Row | IC50 [nM] | Compound
1 | 30 | O=c1[nH]c2cnc(-n3cnc4ccccc43)nc2n1C1CCOc2c(F)cccc21 (racemic)
2 | 540 | O=c1[nH]c2cnc(-n3cnc4ccccc43)nc2n1[C@H]1CCOc2c(F)cccc21
3 | 28 | O=c1[nH]c2cnc(-n3cnc4ccccc43)nc2n1[C@@H]1CCOc2c(F)cccc21
4 | 260 | O=c1[nH]c2cnc(-n3cnc4ccccc43)nc2n1C1CCOc2cc(F)ccc21 (racemic)

The remaining lines, values behind:

Row | Compound | IC50 [nM]
5 | O=c1[nH]c2cnc(-n3cnc4cc(C(F)(F)F)ccc43)nc2n1C1CCOCC1 | 245
6 | O=c1[nH]c2cnc(-n3cnc4ccc(F)cc43)nc2n1Cc1cccc(F)c1F | 108
7 | N#Cc1ccc2ncn(-c3ncc4[nH]c(=O)n(Cc5cccc(F)c5F)c4n3)c2c1 | 17
8 | O=c1[nH]c2cnc(-n3cnc4ccccc43)nc2n1C1CCOc2ccc(F)cc21 (racemic) | 28
